A short description of this data set: solubility.

The values that follow come from US8017623B2, “Dextromethorphan hydrochloride” (Trinity Laboratories, Inc., priority 2008, dated 2011).

Consider “3-methoxy-17-methyl-9a, 13a, 14a-morphinan hydrochloride [Dextromethorphan Hydrochloride]”, for which the solubility in alcohol entry (alcohol) is recorded as “soluble”. Besides, the solubility in chloroform result (chloroform) was “soluble”. Moreover, the solubility in water entry (water at room temperature) is on record as “freely soluble”.
